According to PubChem BioAssay AID485317 (Broad Institute, 2010):
This is a selection; strong and weak results do not stand in their true shares. Some salts and complexes are drawn in separate pieces, as the source files them; their charges need not balance. Activity calls are given as the source filed them.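 Rule for the calls: active = mean replicate inhibition above about 79%, with every replicate also reaching it (limit read from the data); inconclusive = only one of the two criteria met; inactive = mean below limit and not every replicate reaching it.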

Sequences of proteins named here, by UniProt entry; tags and fusion partners are left off.
UniProt P55789, whole entry: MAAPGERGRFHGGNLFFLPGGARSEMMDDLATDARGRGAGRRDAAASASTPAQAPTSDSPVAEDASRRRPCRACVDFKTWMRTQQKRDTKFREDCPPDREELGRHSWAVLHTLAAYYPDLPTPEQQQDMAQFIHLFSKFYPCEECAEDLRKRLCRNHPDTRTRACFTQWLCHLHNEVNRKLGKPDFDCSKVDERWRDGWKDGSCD

These compounds were tested against FAD-linked sulfhydryl oxidase ALR (Homo sapiens) (UniProt P55789) (assay: ALR-catalysed DTT oxidation blockers – biochemical, H2O2 detection, HRP-luminol luminescence, single point, primary screen (AID 485317)). Settings: purified ALR, hits give high values, concentration not given here.
With `O=P1(Nc2ccc(Br)cn2)COc2ccccc2OC1` the inhibition was inactive: -16.4%.
In the case of `NS(=O)(=O)c1cccc(NC(=O)COC(=O)C(O)(c2ccccc2)c2ccccc2)c1`, the inhibition is reported as inactive: 0.06%.
In the case of `Cc1ccc(OCC(=O)OC2CN3CCC2CC3)cc1` (centres undefined), the inhibition is reported as inactive: -3.03%.
For `O=[As](O)(c1cccs1)c1cccs1`, the inhibition was inactive: -0.704%.
`COc1ccccc1OP(C)(=O)Nc1c(C)cccc1C` (centres undefined) was tested, and the inhibition was inactive: -0.165%.
With `CN1CCCCC1COC(=O)C1(O)c2ccccc2CCc2ccccc21` (centres undefined) the inhibition was inactive: -11.5%.
`COc1ccc(NP(C)(=O)Oc2ccccc2OC)cc1` (centres undefined) was tested, and the inhibition was inactive: -5.25%.
For `CN(C)CCOC(=O)C(O)(c1ccccc1)C1CCCCC1` (centres undefined), the inhibition was inactive: -7.43%.
`O=P(Nc1nc2ccccc2s1)(c1ccccc1)c1ccccc1` was tested, and the inhibition was inactive: 2.87%.
With `C[C@H]1OP(=O)(Oc2ccccc2)[C@H](O)[C@H](O)[C@H]1N=[N+]=[N-]` (some centres undefined) the inhibition was inactive: -0.203%.
`O=P(Nc1ccccn1)(c1ccc(Br)cc1)c1ccc(Br)cc1` was tested, and the inhibition was inactive: -8.85%.
In the case of `CN(C)C1(CNC(=O)c2ccc(Cl)c(S(N)(=O)=O)c2)CCCCC1`, the inhibition is reported as inactive: -9.38%.
`COc1ccc(OP(C)(=O)Nc2cccc(Br)c2)cc1` (centres undefined) was tested, and the inhibition was inactive: -2.52%.
`O=C(OC1CN2CCC1CC2)c1cccc(Cl)c1` (centres undefined) was tested, and the inhibition was inactive: 1.25%.
For `Nc1ccc([As](=O)(O)c2ccc([N+](=O)[O-])cc2)cc1`, the inhibition was inactive: -7.82%.
`C(Cc1nn[nH]n1)Cc1nn[nH]n1` was tested, and the inhibition was inactive: 3.88%.
In the case of `O=[As](O)(c1ccccc1)c1ccc(O)cc1`, the inhibition is reported as inactive: -0.88%.
For `O=[N+]([O-])c1cc([N+](=O)[O-])c(NCC2CCS(=O)(=O)C2)c([N+](=O)[O-])c1` (centres undefined), the inhibition was inactive: -23.6%.
For `O=[N+]([O-])c1ccc(OP2(=O)COCCO2)cc1` (centres undefined), the inhibition was inactive: -1.19%.
In the case of `c1nnnn1CCn1cnnn1`, the inhibition is reported as inactive: -5.43%.
In the case of `CCOP(C)(=S)SCC(=O)NC(C)(CC)C(=O)O` (centres undefined), the inhibition is reported as inactive: -7.26%.
In the case of `CC(C)C(=O)NC(Sc1ccccc1)C(Cl)(Cl)Cl` (centres undefined), the inhibition is reported as inactive: -0.988%.
For `O=P(Nc1nccs1)(c1ccccc1)c1ccccc1`, the inhibition was inactive: 8.18%.
`CP(=O)(Nc1ccc(SC(F)(F)F)cc1)Oc1ccc(F)cc1` (centres undefined) was tested, and the inhibition was inactive: -1.69%.
For `Cc1ccccc1NP(C)(=O)Nc1ccccc1C`, the inhibition was inactive: -2.34%.
With `CP(=O)(Nc1ccc2c(c1)OCCO2)Oc1ccccc1` (centres undefined) the inhibition was inactive: -25.3%.
With `CC(C)(C)C(=O)NC(Sc1ccccc1)C(Cl)(Cl)Cl` (centres undefined) the inhibition was inactive: -15.7%.
With `CC(C)c1ccc(OP(C)(=O)Nc2ccc(SC(F)(F)F)cc2)cc1` (centres undefined) the inhibition was inactive: 0.653%.
With `CP(=O)(Nc1ccccc1F)Oc1ccccc1` (centres undefined) the inhibition was inactive: -10.3%.
With `O=P1(Nc2nc3ccc(Cl)cc3s2)COc2ccccc2O1` (centres undefined) the inhibition was inactive: 54.9%.
In the case of `COc1ccc2c(c1O)-c1c(O)c(OC)cc3c1[C@H](C2)[N+](C)(C)CC3.O=[N+]([O-])c1cc([N+](=O)[O-])c([O-])c([N+](=O)[O-])c1[O-]`, the inhibition is reported as inactive: 6.94%.
With `CC(=O)Nc1ccc([As](=O)(O)O)c(O)c1` the inhibition was inactive: -1.24%.
With `O=C(OCCN1CCN(CCOCc2ccccc2)CC1)C(O)(c1ccccc1)c1ccccc1` the inhibition was inactive: 0.375%.
With `C[C@@H]1C=CCP(=O)(Oc2ccccc2)O1` (some centres undefined) the inhibition was inactive: 4.95%.
`C[C@H]1OP(=O)(Oc2ccccc2)C[C@@H]2O[C@@H]21` (some centres undefined) was tested, and the inhibition was inactive: -0.433%.
`CC(=O)c1ccc(N2CC2c2ccncc2)cc1` (centres undefined) was tested, and the inhibition was inactive: -11.1%.
In the case of `O=C(OC1CN2CCC1CC2)c1ccc([N+](=O)[O-])cc1` (centres undefined), the inhibition is reported as inactive: -14.4%.
In the case of `COc1ccc(OP(C)(=O)Nc2ccc(SC(F)(F)F)cc2)cc1` (centres undefined), the inhibition is reported as inactive: -5.03%.
With `CCOC(=O)c1ccc(NP(C)(=O)Oc2ccc(F)cc2)cc1` (centres undefined) the inhibition was inactive: 1.83%.
In the case of `c1ccc(-c2nn[nH]n2)c(-c2nn[nH]n2)c1`, the inhibition is reported as inactive: -7.32%.
For `CCOC(=O)NC(Sc1ccccc1)C(Cl)(Cl)Cl` (centres undefined), the inhibition was inactive: 50.9%.
In the case of `CCNC(=S)/N=C(\N)N[N+](=O)[O-]`, the inhibition is reported as inactive: -3.79%.
With `O=C(NC1CCS(=O)(=O)C1)NP(=S)(Oc1ccccc1)Oc1ccccc1` (centres undefined) the inhibition was inactive: 0.976%.
With `Cc1ccccc1OP(=O)(Nc1ccccn1)Oc1ccccc1C` the inhibition was inactive: 1.83%.
In the case of `CC(NC(=O)COC(=O)C(O)(c1ccccc1)c1ccccc1)c1ccccc1` (centres undefined), the inhibition is reported as inactive: -3.71%.
For `CN(C)C(=O)Oc1noc2ccccc12`, the inhibition was inactive: -1.44%.
With `CCCCCOc1ccc(NP(C)(=O)Oc2ccc(Cl)cc2Cl)cc1` (centres undefined) the inhibition was inactive: -6.48%.
With `CP(=O)(Nc1ccccc1)Oc1ccc(F)cc1` (centres undefined) the inhibition was inactive: -15.1%.
For `O=C(OC1CN2CCC1CC2)c1ccccc1` (centres undefined), the inhibition was inactive: -27.5%.
In the case of `CCN(CC)CCCOC(=O)C(O)(c1ccccc1)C1CCCCC1` (centres undefined), the inhibition is reported as inactive: -8.8%.
In the case of `CCC(=O)N1C2C3N(C(=O)CC)C1C1N(C(=O)CC)C(C(N1C(=O)CC)N3C(=O)CC)N2C(=O)CC`, the inhibition is reported as inactive: -3.4%.
In the case of `COC(=O)c1cc2c(s1)N=C(c1ccccc1)N(C)P2(=O)N1CCOCC1` (centres undefined), the inhibition is reported as inactive: -12.6%.
For `Cc1ccc(OP(=O)(Nc2ccccn2)Oc2ccc(C)cc2)cc1`, the inhibition was inactive: -2.36%.
For `COc1ccc(OP(C)(=O)Nc2ccccc2Br)cc1` (centres undefined), the inhibition was inactive: -5.87%.
`CCOP(=O)(Nc1ccccc1)OCC` was tested, and the inhibition was inactive: 0.652%.
For `Cc1cc(SC(NC(=O)c2ccc(F)cc2)C(Cl)(Cl)Cl)ncn1` (centres undefined), the inhibition was inactive: 34%.
`Cc1ccc(NP(=O)(Oc2ccccc2F)Oc2ccccc2F)nc1` was tested, and the inhibition was inactive: -5.8%.
In the case of `COc1ccccc1OP(C)(=O)Nc1ccc(C)c(C)c1` (centres undefined), the inhibition is reported as inactive: 1.09%.
In the case of `Cc1cc(C)cc(OP(C)(=O)Nc2cccc(C(F)(F)F)c2)c1` (centres undefined), the inhibition is reported as inactive: -4.87%.
With `O=P(Nc1nc2ccc(Cl)cc2s1)(c1ccccc1)c1ccccc1` the inhibition was inactive: -2.81%.
`Nc1cccc2ccc([As](=O)(O)O)cc12` was tested, and the inhibition was inactive: -31.6%.
`CP(=O)(OCCOc1ccccc1)OCCOc1ccccc1` was tested, and the inhibition was inactive: -2.5%.
In the case of `CP(=O)(Nc1ccc(Cl)cc1Cl)Oc1ccccc1` (centres undefined), the inhibition is reported as inactive: -4.06%.
For `CCN(N=Nc1nonc1N)c1nonc1N`, the inhibition was inactive: -3.31%.
With `O=[N+]([O-])c1cc([N+](=O)[O-])c(CCN2CCOCC2)c([N+](=O)[O-])c1` the inhibition was inactive: 30.9%.
With `Cc1nc2ccc3ccccc3c2o1.O=[N+]([O-])c1cc([N+](=O)[O-])c(O)c([N+](=O)[O-])c1` the inhibition was active: 98.9%.
For `CN(C)CCOC(=O)C(O)(c1ccccc1)C1CCCC1` (centres undefined), the inhibition was inactive: -3.19%.
`CN1CCCC(OC(=O)C(c2ccccc2)c2ccccc2)C1` (centres undefined) was tested, and the inhibition was inactive: -4.41%.
For `COc1ccccc1OP(=O)(Nc1ccc(C)cn1)Oc1ccccc1OC`, the inhibition was inactive: -3.6%.
With `Cc1ccc(OP(=O)(Nc2nccs2)Oc2ccc(C)cc2)cc1` the inhibition was inactive: -0.917%.
`COc1ccccc1OP(C)(=O)Nc1ccc(Br)cc1` (centres undefined) was tested, and the inhibition was inactive: -6.89%.
With `Cc1ccc(N/C(=N/P(=O)(N2CCOCC2)N2CCOCC2)N2CCOCC2)cc1` the inhibition was inactive: 2.59%.
For `NC(=O)c1cc([N+](=O)[O-])cc([N+](=O)[O-])c1N`, the inhibition was inactive: -29.2%.
For `CCc1ccc(OP(C)(=O)O)cc1`, the inhibition was inactive: -2.02%.
In the case of `CP(=O)(Nc1ccccn1)Oc1ccccc1` (centres undefined), the inhibition is reported as inactive: -3.21%.
In the case of `Oc1ccccc1CNc1ccccn1`, the inhibition is reported as inactive: 8.72%.
In the case of `Cc1c2non([O-])c-2c(C)[n+](=O)[n+]1[O-]`, the inhibition is reported as inactive: -1.17%.
`O=C(NC(Sc1ccncn1)C(Cl)(Cl)Cl)c1ccccc1` (centres undefined) was tested, and the inhibition was inactive: 21%.
For `CC(C)CC(=O)NC(Sc1ccc(Cl)cc1)C(Cl)(Cl)Cl` (centres undefined), the inhibition was inactive: -0.633%.
In the case of `O=[N+]([O-])c1cc([N+](=O)[O-])c(Nc2ccccn2)c([N+](=O)[O-])c1`, the inhibition is reported as inactive: -25.5%.
With `Cc1c(NP(C)(=O)Oc2ccc(C(C)C)cc2)c(=O)n(-c2ccccc2)n1C` (centres undefined) the inhibition was inactive: 6.46%.
For `Cc1ccc(NP(=O)(Oc2ccccc2)Oc2ccccc2)nc1`, the inhibition was inactive: -1.33%.
In the case of `CP(=O)(Oc1ccccc1)N1CCOC1=O` (centres undefined), the inhibition is reported as inactive: 9.99%.
With `CCc1nc2c(n1)c1c(non1O)c1c2no[n+]1[O-]` the inhibition was inactive: 15.1%.
In the case of `O=[N+]([O-])c1cc([N+](=O)[O-])c(CCNc2ccccc2)c([N+](=O)[O-])c1`, the inhibition is reported as inactive: -13.8%.
`CCc1ccc(OP(C)(=O)Nc2cccnc2)cc1` (centres undefined) was tested, and the inhibition was inactive: 0.526%.
With `COc1ccccc1OP(C)(=O)Nc1c(C)n(C)n(-c2ccccc2)c1=O` (centres undefined) the inhibition was inactive: 19.2%.
`O=[N+]([O-])c1cccc2n[nH]nc12` was tested, and the inhibition was inactive: -3.55%.
In the case of `CC(=O)N1C2C3N(C(C)=O)C1C1N(C(C)=O)C(C(N1C(C)=O)N3C(C)=O)N2C(C)=O`, the inhibition is reported as inactive: -2.12%.
For `O=C(OCCCN1CCCC1)C(O)(c1ccccc1)C1CCCCC1` (centres undefined), the inhibition was inactive: -11.9%.
With `CCN(CC)CC(O)COC(=O)C(O)(c1ccccc1)C1CCCCC1` (centres undefined) the inhibition was inactive: 6.68%.
`COc1ccc(C2=NCC(CBr)S2)cc1` (centres undefined) was tested, and the inhibition was inactive: -5.34%.
`CC1CCN(C(=O)Oc2c(Cl)cc(Cl)c3cccnc23)CC1` was tested, and the inhibition was inactive: 4.14%.
For `CN(C)C(=O)c1c([N+](=O)[O-])cc([N+](=O)[O-])cc1[N+](=O)[O-]`, the inhibition was inactive: -54.3%.
With `CC(C)=N/N=C(\N)N[N+](=O)[O-]` the inhibition was inactive: -3.57%.
In the case of `CN(C)C(=O)OCCc1n(C)cc[n+]1C`, the inhibition is reported as inactive: -3.6%.
For `CCN(/C(=N/P(=O)(N1CCOCC1)N1CCOCC1)N1CCOCC1)c1ccc(OC)cc1`, the inhibition was inactive: -12.5%.
In the case of `CP(=O)(Nc1ccc(Cl)cc1)Oc1ccc(F)cc1` (centres undefined), the inhibition is reported as inactive: -2.14%.
`CC(C)(C)c1ccc(OP(C)(=O)O)cc1` was tested, and the inhibition was inactive: 8.05%.
With `Nc1ccc([As](=O)(O)c2ccc(N)cc2)cc1` the inhibition was inactive: -1.2%.
In the case of `COc1ccccc1OP(C)(=O)Nc1ccccc1Br` (centres undefined), the inhibition is reported as inactive: -5.2%.
In the case of `C[N+]1=C2C=CC=CC=C2SC12C([N+](=O)[O-])=CC([N+](=O)[O-])=C[C-]2[N+](=O)[O-]` (centres undefined), the inhibition is reported as inactive: -10.9%.
In the case of `CP(=O)(OC12CC3CC(CC(C3)C1)C2)OC12CC3CC(CC(C3)C1)C2`, the inhibition is reported as inactive: -7.02%.
For `CCOC(=O)c1ccc(NP(C)(=O)Oc2ccc(Cl)cc2)cc1` (centres undefined), the inhibition was inactive: -10%.
With `O=C(Nc1cc([As](=O)(O)O)ccc1O)c1ccccc1` the inhibition was inactive: -0.303%.
`Nc1ccc2c(ccc3cccnc32)n1.O=[N+]([O-])c1cc([N+](=O)[O-])c(O)c([N+](=O)[O-])c1` was tested, and the inhibition was inactive: -9.68%.
In the case of `O=C(O)CNc1ccc([As](=O)(O)O)cc1`, the inhibition is reported as inactive: -3.4%.
With `O=[N+]([O-])c1ncn(CCn2ncnc2[N+](=O)[O-])n1` the inhibition was inactive: -20.9%.
In the case of `CC(C)(C)C(=O)NC(Sc1ccncn1)C(Cl)(Cl)Cl` (centres undefined), the inhibition is reported as inactive: 14.8%.
